Structures are written as SMILES. This is a selection; strong and weak results do not stand in their true shares. Active and inactive are the calls of the source.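 The calls were made as follows: active = GFP response relative to DMSO above a set limit, near screen average plus 3 SD (cut at about 150% in these data); inconclusive = fewer than 70 cells counted for the yeast strain; inactive = the rest.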

This experiment can be described thus: yeast AGP1-GFP level changes, GLN3 branch – cell-based, multiplex flow cytometry, S. cerevisiae, MLPCN library, primary screen (AID 2066).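 Also: median GFP channel fluorescence of the gated AGP1 strain per well.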 To be noted: 3 h, at 10 µM, active compounds read high, GFP as percent of DMSO wells.
For the compound `CN1CCN(CCOC(=O)C(O)(c2ccccc2)c2ccccc2)CC1`, the GFP response vs DMSO is inactive: 94.1%.

On to `COc1ccc(NC2CCN(C(=O)OC(C)(C)C)CC2)cc1`, for which the GFP response vs DMSO is inactive: 101%.

Take `COc1cc(C(=O)NCC2(N3CCCCC3)CCCCC2)ccc1OC(F)F`: the GFP response vs DMSO was inactive: 99.4%.

Turning to `O=C(NCC1(N2CCOCC2)CCCCC1)c1cc(=O)[nH]c2ccccc12`, the GFP response vs DMSO is inactive: 95.1%.

Regarding `O=C(NCC1(N2CCCCC2)CCCCC1)c1cccc(C(F)(F)F)c1`, the GFP response vs DMSO is inactive: 104%.

For `O=C(NCC1(N2CCCCC2)CCCCC1)c1cccc([N+](=O)[O-])c1`, the GFP response vs DMSO was inactive: 114%.

With `CCN1CCC(Nc2ccc(Cl)cc2)CC1`, the GFP response vs DMSO was inactive: 96.7%.

Take `N#CC1(Nc2ccccc2)CCN(CCc2ccccc2)CC1`: the GFP response vs DMSO is inactive: 101%.

With `O=C(NCC1(N2CCCCC2)CCCCC1)c1ccc(OC(F)F)cc1`, the GFP response vs DMSO is inactive: 102%.

Turning to `CCCOc1ccc(C(=O)NCC2(N(C)C)CCCCC2)cc1OC`, the GFP response vs DMSO is inactive: 83.5%.

Regarding `CN1CCC(Nc2cccc(F)c2)CC1`, the GFP response vs DMSO is inactive: 110%.

As for `O=C(NCC1(N2CCCCC2)CCCCC1)c1cncc(Br)c1`, the GFP response vs DMSO was inactive: 102%.

In the case of `COc1cc(OC)c(C(=O)NCC2(N(C)C)CCCCC2)cc1OC`, the GFP response vs DMSO is inactive: 102%.

In the case of `O=C(NCC1(N2CCOCC2)CCCCC1)c1cc(F)c(F)cc1Cl`, the GFP response vs DMSO is inactive: 101%.

As for `COc1ccc(CN(CCCl)CCCl)cc1Cl`, the GFP response vs DMSO was inactive: 92.8%.

Regarding `CN(C)c1cccc(C(=O)NCC2(N3CCCCC3)CCCCC2)c1`, the GFP response vs DMSO is inactive: 98.8%.

As to `CC(C)c1ccc(NC2CCN(C(=O)OC(C)(C)C)CC2)cc1`, the GFP response vs DMSO is inactive: 102%.

On to `CCOC(=O)N1CCC(Nc2ccc(OC)cc2)CC1`, for which the GFP response vs DMSO is inactive: 98%.

As for `N#CC1(Nc2ccccc2)CCN(Cc2ccccc2)CC1`, the GFP response vs DMSO was inactive: 116%.

Take `O=C(NCC1(N2CCCCC2)CCCCC1)c1ccc(Cl)s1`: the GFP response vs DMSO was inactive: 97.1%.

Regarding `COc1ccc(Cl)cc1C(=O)NCC1(N2CCOCC2)CCCCC1`, the GFP response vs DMSO was inactive: 101%.

On to `O=C(NCC1(N2CCOCC2)CCCCC1)c1cc2ccccc2o1`, for which the GFP response vs DMSO is inactive: 95.6%.

`O=C(NCC1(N2CCCCC2)CCCCC1)c1ccc(Cl)nc1`: the GFP response vs DMSO was inactive: 84%.

On to `Cc1cc(C)cc(N(C(=O)c2ccccc2)C2CCN(C(=O)OC(C)(C)C)CC2)c1`, for which the GFP response vs DMSO was inactive: 94.8%.

Consider `CSc1ccccc1C(=O)NCC1(N2CCCCC2)CCCCC1`, for which the GFP response vs DMSO was inactive: 105%.

Regarding `O=C(NCC1(N2CCCCC2)CCCCC1)c1ccc(=O)[nH]c1`, the GFP response vs DMSO is inactive: 98.9%.

As for `O=C(NCC1(N2CCCCC2)CCCCC1)c1cccs1`, the GFP response vs DMSO is inactive: 108%.

As to `COc1ccc(C(=O)NCC2(N3CCCCC3)CCCCC2)cc1`, the GFP response vs DMSO is inactive: 98.8%.

With `CC(C)(C)OC(=O)N1CCC(N(C(=O)c2ccccc2)c2ccc(F)cc2)CC1`, the GFP response vs DMSO is inactive: 13%.

Regarding `COc1ccc(C(=O)NCC2(N3CCCCC3)CCCCC2)c(OC)c1OC`, the GFP response vs DMSO is inactive: 94.7%.

For the compound `CCOC(=O)N1CCC(Nc2cccc(C)c2)CC1`, the GFP response vs DMSO was inactive: 101%.

`COc1cc(C(=O)NCC2(N(C)C)CCCCC2)ccc1OC(F)F`: the GFP response vs DMSO is inactive: 74.4%.

Turning to `Cc1ccc(OCC(C)C)c(CN(CCCl)CCCl)c1`, the GFP response vs DMSO was inactive: 106%.

`O=C(NCC1(N2CCCCC2)CCCCC1)c1ccc(F)cc1`: the GFP response vs DMSO is inactive: 97.3%.

In the case of `COc1ccc(NC2CCN(CCc3ccccc3)CC2)c(OC)c1`, the GFP response vs DMSO is inactive: 105%.

Turning to `CCOC(=O)N1CCC(Nc2ccc(F)cc2)CC1`, the GFP response vs DMSO was inactive: 105%.

On to `CCOc1ccc(C)cc1CN(CCCl)CCCl`, for which the GFP response vs DMSO was inactive: 90.9%.

In the case of `O=C(NCC1(N2CCCCC2)CCCCC1)c1ccco1`, the GFP response vs DMSO is inactive: 103%.

For the compound `CN(C)c1ccc(C(=O)NCC2(N3CCCCC3)CCCCC2)cc1`, the GFP response vs DMSO is inactive: 101%.

On to `CCN1CCC(Nc2cccc(F)c2)CC1`, for which the GFP response vs DMSO was inactive: 95.3%.

Take `Cc1ccc(C(=O)NCC2(N3CCCCC3)CCCCC2)o1`: the GFP response vs DMSO is inactive: 103%.

For `Fc1ccccc1NC1CCN(Cc2ccccc2)CC1`, the GFP response vs DMSO was inactive: 97%.

With `COc1cc(OC)cc(C(=O)NCC2(N3CCCCC3)CCCCC2)c1`, the GFP response vs DMSO was inactive: 98%.

In the case of `CCCOc1ccc(C)cc1CN(CCCl)CCCl`, the GFP response vs DMSO is inactive: 97%.

With `CN1CCC(Nc2ccc(Cl)cc2)CC1`, the GFP response vs DMSO was inactive: 99.7%.

`CCC(CO)(C(=O)OC1CN2CCC1CC2)c1ccccc1` (stereo not given): the GFP response vs DMSO is inactive: 98.1%.

With `COc1cc(OC)cc(C(=O)NCC2(N3CCOCC3)CCCCC2)c1`, the GFP response vs DMSO was inactive: 102%.

With `COc1cccc(C(=O)N(c2cc(C)cc(C)c2)C2CCN(C(=O)OC(C)(C)C)CC2)c1`, the GFP response vs DMSO is inactive: 104%.

Regarding `CCCOc1ccc(C(=O)NCC2(N(C)C)CCCCC2)cc1`, the GFP response vs DMSO is inactive: 94.7%.

For `CC(C)(C)OC(=O)N1CCC(Nc2ccccc2)CC1`, the GFP response vs DMSO is inactive: 93.2%.

In the case of `O=C(O)C1(Nc2ccccc2)CCN(Cc2ccccc2)CC1`, the GFP response vs DMSO is inactive: 97.8%.

As for `CCOc1ncccc1C(=O)NCC1(N2CCOCC2)CCCCC1`, the GFP response vs DMSO was inactive: 106%.

In the case of `CN1CCC(Nc2ccc(F)c(Cl)c2)CC1`, the GFP response vs DMSO is inactive: 98.8%.

As for `CCc1cc(C(=O)NCC2(N3CCCCC3)CCCCC2)sc1C`, the GFP response vs DMSO was inactive: 96.5%.

For the compound `O=C(OC1CN2CCC1CC2)C1c2ccccc2C=Cc2ccccc21` (stereo not given), the GFP response vs DMSO was inactive: 102%.

In the case of `N/C(=N\O)c1c(N)no[n+]1[O-]`, the GFP response vs DMSO was inactive: 99.6%.

On to `CCOC(=O)N1CCC(Nc2ccc(C)cc2)CC1`, for which the GFP response vs DMSO is inactive: 98%.

For the compound `COc1ccc(C(=O)NCC2(N3CCOCC3)CCCCC2)cc1OC`, the GFP response vs DMSO was inactive: 95.5%.

In the case of `O=C(NCC1(N2CCOCC2)CCCCC1)c1cc(Br)ccc1Cl`, the GFP response vs DMSO is inactive: 95.4%.

With `COc1cc(C(=O)NCC2(N3CCOCC3)CCCCC2)cc(OC)c1C`, the GFP response vs DMSO was inactive: 95.3%.

Take `c1ccc(CN2CCC(Nc3ccccc3)CC2)cc1`: the GFP response vs DMSO is inactive: 101%.

As to `CCCN1CCC(Nc2cc(OC)cc(OC)c2)CC1`, the GFP response vs DMSO was inactive: 97.8%.

Consider `CN(C)C1(CNC(=O)c2cccc(C#N)c2)CCCCC1`, for which the GFP response vs DMSO is inactive: 105%.

For the compound `CC(C)(C)OC(=O)N1CCC(N(C(=O)c2ccccc2)c2ccc(Cl)cc2)CC1`, the GFP response vs DMSO is inactive: 105%.

With `N#Cc1ccc(C(=O)NCC2(N3CCCCC3)CCCCC2)cc1`, the GFP response vs DMSO is inactive: 113%.

(Values after PubChem BioAssay AID2066 (NMMLSC, 2009).)
